In ChEMBL document CHEMBL4028801, “A multifactorial approach to hepatobiliary transporter assessment enables improved therapeutic compound development” (Toxicol Sci, 2013) one finds Ratio data, which are given here for one compound.

This data set is described as follows: Ratio of drug concentration at steady state in human at 400 to 600 mg, po QD after 24 hrs to IC50 for human BSEP overexpressed in Sf9 insect cells. The data set is classed as ADME, organism-based. The note with it: in vivo.

As for `Cc1ccc(NC(=O)c2ccc(CN3CCN(C)CC3)cc2)cc1Nc1nccc(-c2cccnc2)n1` [IMATINIB], the Ratio was 0.176.
